Laboratory results as given in paper PMC5562305, “Impact of novel palmitoylated prolactin-releasing peptide analogs on metabolic changes in mice with diet-induced obesity” (PLoS ONE, 2017).

Biological target: T1, GPR10 (Homo sapiens, UniProt P49683)
T1 sequence (P49683 1-370): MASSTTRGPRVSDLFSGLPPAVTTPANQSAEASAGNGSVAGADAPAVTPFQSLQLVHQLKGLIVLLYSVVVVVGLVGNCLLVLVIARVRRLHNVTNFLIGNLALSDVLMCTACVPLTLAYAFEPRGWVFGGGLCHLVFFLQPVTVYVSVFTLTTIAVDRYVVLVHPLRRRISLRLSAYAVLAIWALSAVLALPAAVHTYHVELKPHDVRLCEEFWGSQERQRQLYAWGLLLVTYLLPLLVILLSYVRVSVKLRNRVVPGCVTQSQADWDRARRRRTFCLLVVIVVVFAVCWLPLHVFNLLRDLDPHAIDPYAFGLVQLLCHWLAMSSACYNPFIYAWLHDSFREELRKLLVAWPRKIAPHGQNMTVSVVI
Assay: Beta-lactamase-dependent FRET assay (bla reporter gene) in CHO-K1 cells overexpressing GPR10
Assay type: cell-based
Parameters: expressed in transfected cells; host or cells: CHO-K1
Details: mean ± SEM of at least three experiments, read-out: Activation of bla reporter gene in GPR10 overexpressing cells, EC50
Procedure: CHO-K1 cells overexpressing GPR10 were plated at 40,000 cells/well in 128 μl of assay medium (DMEM containing 10% dialyzed FBS, 0.1 mM NEAA, 25 mM HEPES, 1% penicillin/streptomycin, and 2 mM L-glutamine) in a 96-well plate and were incubated for 20 h at 37°C/5% CO2. The assay was performed according to the manufacturer's protocol.
The results from the lactamase assay were analyzed using nonlinear regression by log agonist vs. response using GraphPad software.

- EC50: 0.243 ± 0.05 nM
Structure (SMILES): CC[C@H](C)[C@H](NC(=O)CNC(=O)[C@H](CCCNC(=N)N)NC(=O)[C@H](CO)NC(=O)[C@H](C)NC(=O)[C@H](Cc1ccc(O)cc1)NC(=O)[C@H](Cc1c[nH]c2ccccc12)NC(=O)[C@H](C)NC(=O)[C@@H]1CCCN1C(=O)[C@H](CC(N)=O)NC(=O)[C@@H](NC(=O)[C@H](CC(=O)O)NC(=O)[C@@H]1CCCN1C(=O)[C@@H](NC(=O)[C@H](CCCNC(=N)N)NC(=O)[C@@H](NC(=O)[C@H](CCC(=O)O)NC(=O)[C@H](CCSC)NC(=O)[C@H](CO)NC(=O)[C@H](Cc1c[nH]cn1)NC(=O)[C@H](CCCNC(=N)N)NC(=O)[C@H](Cc1c[nH]cn1)NC(=O)[C@@H](NC(=O)[C@H](CCCNC(=N)N)NC(=O)[C@@H](N)CO)[C@@H](C)O)[C@@H](C)CC)[C@@H](C)O)[C@@H](C)CC)C(=O)N[C@@H](CCCNC(=N)N)C(=O)N1CCC[C@H]1C(=O)N[C@H](C(=O)NCC(=O)N[C@@H](CCCNC(=N)N)C(=O)N[C@@H](Cc1ccccc1)C(N)=O)C(C)C [human PrRP31, reference compound]
